From patent EP4821918A1, “CO-CRYSTAL FORM OF RNA M6A MODULATOR AND PREPARATION METHOD THEREFOR AND USE THEREOF” (dated 2026)

How the values were obtained:
ICR mice [1] = experiment: kinase inhibitor-induced mouse model with hand-foot skin reaction; conditions: for skin of the hind limb toes of the mice (appearance): modeling 14 days, oral gavage once daily: sorafenib 100 mg/kg, osimertinib 10 mg/kg, versus normal control (FIG. 28); for degree of swelling of the hind limb toes of the mice / epidermal layer and stratum corneum in the skin tissues of the hind limb toes: modeling drug alone; for degree of swelling of the hind limb toes of the mice: continuous oral administration 14 days (FIG. 29); for epidermal layer and stratum corneum in the skin tissues of the hind limb toes / cytokine IL-1β in the skin tissues of the hind limb toes of the mice: oral 14 days; for epidermal layer and stratum corneum in the skin tissues of the hind limb toes: pathological staining (FIG. 30); for cytokine IL-1β in the skin tissues of the hind limb toes of the mice: immunohistochemistry, p<0.05 versus normal control
SD rats = experiment: rat models with hand-foot skin reaction; conditions: for KRT1 and Loricrin in tissues: immunohistochemical staining; for KRT1 and Loricrin in tissues / stratum corneum thickness of the paw plantar skin: successfully modeled rats, modeling drug alone; for Incidence rate Left paw / Incidence rate Right paw: modeling drug alone by gavage once daily 30 days (sorafenib 100, erlotinib 70, afatinib 50, osimertinib 60 mg/kg), no compound in ointment, 12 rats; for stratum corneum thickness of the paw plantar skin: versus normal rats (FIG. 20)
HaCaT cells = experiment: m6A methylation level of human keratinocytes (EpiQuik m6A RNA methylation quantification kit); conditions: 50 nM drug alone (control groups A-D), 24 hours, relative to control group 1 (DMSO)
ICR mice [2] = experiment: chemotherapeutic drug-induced mouse model with hand-foot syndrome; conditions: for skin of the hind limb toes of the mice (appearance): modeling 14 days, oral gavage once daily: capecitabine 200 mg/kg, docetaxel 25 mg/kg, versus normal control (FIG. 23); for degree of swelling of the hind limb toes of the mice / epidermal layer and stratum corneum in the skin tissues of the hind limb toes: modeling drug alone; for degree of swelling of the hind limb toes of the mice: continuous oral administration 14 days (FIG. 24); for epidermal layer and stratum corneum in the skin tissues of the hind limb toes: pathological staining (FIG. 25)
[3] = capecitabine- or docetaxel-modeled mice, 3% ointment topical or nicotinamide 100 mg/kg oral, once daily 16 days (FIG. 25)
[4] = sorafenib- or osimertinib-modeled mice, 3% ointment topical or nicotinamide 100 mg/kg oral, once daily 16 days (FIG. 30)

SMILES	skin of the hind limb toes of the mice (appearance) (ICR mice [1])	epidermal layer and stratum corneum in the skin tissues of the hind limb toes (ICR mice [1])	KRT1 and Loricrin in tissues (SD rats)	stratum corneum thickness of the paw plantar skin (SD rats)	skin of the hind limb toes of the mice (appearance) (ICR mice [2])	epidermal layer and stratum corneum in the skin tissues of the hind limb toes (ICR mice [2]; oral 14 days)	degree of swelling of the hind limb toes of the mice (ICR mice [1])	Incidence rate Left paw (SD rats)	Incidence rate Right paw (SD rats)	degree of swelling of the hind limb toes of the mice (ICR mice [2])	further results
C#Cc1cccc(Nc2ncnc3cc(OCCOC)c(OCCOC)cc23)c1			significantly increased	significantly higher				10/12 (83.3%)	10/12 (83.3%)		successful modeling rates for the hand-foot skin reaction (SD rats; SD rats, once daily by gavage: sorafenib 100, erlotinib 70, afatinib 50, osimertinib 60 mg/kg): 83.3%
CCCCCOC(=O)Nc1nc(=O)n([C@@H]2O[C@H](C)[C@@H](O)[C@H]2O)cc1F					obvious erythema, rhagades, and blisters	significantly thickened				swelling of the hind limb toes of the mice was caused	m6A fold change (HaCaT cells; listed as capecitabine): significantly increase; cytokine IL-8 in the skin tissues of the hind limb toes of the mice (ICR mice [2]; capecitabine alone, oral 14 days, immunohistochemistry, p<0.05 versus normal control): significantly increased
NC(=O)c1cccnc1											infiltration of inflammatory cells in toe skin tissues (ICR mice [2]; [3]): infiltration of inflammatory cells still observed; thickening of the epidermal layer and the stratum corneum in the skin tissues (ICR mice [2]; [3]): mildly alleviated; alleviation of the swelling of the toes caused by the modeling drugs (ICR mice [2]; capecitabine- or docetaxel-modeled mice, 3% ointment topical or nicotinamide 100 mg/kg oral, once daily 16 days, p<0.05 for ointment): it was not observed that oral administration of nicotinamide at 100 mg/kg significantly alleviated the swelling; expression level of cytokine IL-8 in the skin tissues of the hind limb toes of the mice (ICR mice [2]; capecitabine-modeled mice, 3% ointment topical or nicotinamide 100 mg/kg oral, once daily 16 days): didn't have a significant impact; expression level of cytokine IL-6 in the skin tissues of the hind limb toes of the mice (ICR mice [2]; docetaxel-modeled mice, 3% ointment topical or nicotinamide 100 mg/kg oral, once daily 16 days): didn't have a significant impact; expression level of cytokine IL-1β in the skin tissues of the hind limb toes of the mice (ICR mice [1]; osimertinib-modeled mice, 3% ointment topical or nicotinamide 100 mg/kg oral, once daily 16 days): didn't have a significant impact; alleviation of the swelling of the toes caused by the modeling drugs (ICR mice [1]; sorafenib- or osimertinib-modeled mice, 3% ointment topical or nicotinamide 100 mg/kg oral, once daily 16 days): it was not observed that oral administration of the nicotinamide at 100 mg/kg significantly alleviated the swelling; infiltration of inflammatory cells in toe skin tissues (ICR mice [1]; [4]): infiltration of inflammatory cells still observed; thickening of the epidermal layer and the stratum corneum in the skin tissues (ICR mice [1]; [4]): didn't significantly alleviate; expression level of cytokine IL-1β in the skin tissues of the hind limb toes of the mice (ICR mice [1]; sorafenib-modeled mice, 3% ointment topical or nicotinamide 100 mg/kg oral, once daily 16 days): didn't have a significant impact
CC(=O)O[C@@]12CO[C@@H]1C[C@H](O)[C@@]1(C)C(=O)[C@H](O)C3=C(C)[C@@H](OC(=O)[C@H](O)[C@@H](NC(=O)OC(C)(C)C)c4ccccc4)C[C@@](O)([C@@H](OC(=O)c4ccccc4)[C@H]21)C3(C)C					obvious erythema, rhagades, and blisters	significantly thickened				swelling of the hind limb toes of the mice was caused	m6A fold change (HaCaT cells; listed as docetaxel): significantly increase; cytokine IL-6 in the skin tissues of the hind limb toes of the mice (ICR mice [2]; docetaxel alone, oral 14 days, immunohistochemistry, p<0.05 versus normal control): significantly increased

Continued, in another order:

skin of the hind limb toes of the mice (appearance) (ICR mice [1])	epidermal layer and stratum corneum in the skin tissues of the hind limb toes (ICR mice [1])	KRT1 and Loricrin in tissues (SD rats)	stratum corneum thickness of the paw plantar skin (SD rats)	skin of the hind limb toes of the mice (appearance) (ICR mice [2])	epidermal layer and stratum corneum in the skin tissues of the hind limb toes (ICR mice [2]; oral 14 days)	SMILES	degree of swelling of the hind limb toes of the mice (ICR mice [1])	Incidence rate Left paw (SD rats)	Incidence rate Right paw (SD rats)	degree of swelling of the hind limb toes of the mice (ICR mice [2])	further results
obvious erythema and rhagades	significantly thickened	significantly increased	significantly higher			C=CC(=O)Nc1cc(Nc2nccc(-c3cn(C)c4ccccc34)n2)c(OC)cc1N(C)CCN(C)C	significant swelling of the hind limb toes of the mice was caused	9/12 (75%)	9/12 (75%)		cytokine IL-1β in the skin tissues of the hind limb toes of the mice (ICR mice [1]; osimertinib alone): significantly increased
obvious erythema and rhagades	significantly thickened	significantly increased	significantly higher			CNC(=O)c1cc(Oc2ccc(NC(=O)Nc3ccc(Cl)c(C(F)(F)F)c3)cc2)ccn1	significant swelling of the hind limb toes of the mice was caused	9/12 (75%)	9/12 (75%)		cytokine IL-1β in the skin tissues of the hind limb toes of the mice (ICR mice [1]; sorafenib alone): significantly increased
